Biological target: human mGluR2 (Homo sapiens (Human), UniProt Q14416)
Test: FLIPR Ca2+ mobilization antagonist assay in CHO dhfr- cells expressing recombinant human mGluR2 and Gα16
Assay type: cell-based
Conditions: antagonist response after addition of 2,500 nM glutamate, Fluo-4 AM, FLIPR384

Chains of the proteins cited; added tags and fusions are not shown. Residues count along the entry.
UniProt Q14416, 19-872: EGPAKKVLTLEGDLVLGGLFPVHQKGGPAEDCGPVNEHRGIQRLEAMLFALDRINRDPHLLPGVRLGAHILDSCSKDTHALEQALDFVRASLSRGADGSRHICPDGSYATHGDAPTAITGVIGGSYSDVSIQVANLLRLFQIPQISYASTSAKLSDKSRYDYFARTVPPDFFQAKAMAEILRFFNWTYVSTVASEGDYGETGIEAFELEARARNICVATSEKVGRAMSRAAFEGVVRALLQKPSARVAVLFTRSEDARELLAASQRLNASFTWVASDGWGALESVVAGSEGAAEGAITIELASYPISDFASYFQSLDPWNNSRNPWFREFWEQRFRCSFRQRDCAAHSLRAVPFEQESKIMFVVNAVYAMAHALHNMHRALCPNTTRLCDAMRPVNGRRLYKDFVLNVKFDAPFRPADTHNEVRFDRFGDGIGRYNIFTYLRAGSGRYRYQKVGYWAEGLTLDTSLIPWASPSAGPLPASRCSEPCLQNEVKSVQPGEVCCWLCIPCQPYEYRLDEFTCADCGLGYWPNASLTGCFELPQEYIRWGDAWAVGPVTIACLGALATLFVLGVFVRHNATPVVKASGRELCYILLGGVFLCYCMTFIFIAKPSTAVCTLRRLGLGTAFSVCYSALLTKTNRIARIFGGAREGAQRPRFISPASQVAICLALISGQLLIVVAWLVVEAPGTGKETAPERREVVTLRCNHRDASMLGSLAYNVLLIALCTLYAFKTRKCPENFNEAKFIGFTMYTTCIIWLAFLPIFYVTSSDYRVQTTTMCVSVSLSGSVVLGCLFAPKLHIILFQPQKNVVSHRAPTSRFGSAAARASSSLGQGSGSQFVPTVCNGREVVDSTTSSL

Row | Compound | IC50
1 | NC(=O)c1cc(-c2ccc(F)cc2)c2ccc(CN3CC[C@@H](F)C3)cc2n1 [Example 4-26, 4-(4-fluorophenyl)-7-{[(3R)-3-fluoropyrrolidin-1-yl]methyl}quinoline-2-carboxamide] | 118 nM
2 | NC(=O)c1cc(-c2ccc(F)cc2)c2ccc(CN3CCCC3C(F)(F)F)cc2n1 (stereo not drawn) [Example 4-27, 4-(4-fluorophenyl)-7-{[2-(trifluoromethyl)pyrrolidin-1-yl]methyl}quinoline-2-carboxamide] | 183 nM
3 | NC(=O)c1cc(-c2ccc(F)cc2)c2ccc(CN3CCNC(=O)C3)cc2n1 [Example 4-28, 4-(4-fluorophenyl)-7-[(3-oxopiperazin-1-yl)methyl]quinoline-2-carboxamide] | 82 nM
4 | CON(C)Cc1ccc2c(-c3ccc(F)cc3)cc(C(N)=O)nc2c1 [Example 4-29, 4-(4-fluorophenyl)-7-{[methoxy(methyl)amino]methyl}quin-oline-2-carboxamide] | 82 nM
5 | COCCN(C)Cc1ccc2c(-c3ccc(F)cc3)cc(C(N)=O)nc2c1 [Example 4-30, 4-(4-fluorophenyl)-7-{[(2-methoxyethyl)(meth-yl)amino]methyl} quinoline-2-carboxamide] | 241 nM
6 | CN(CC(N)=O)Cc1ccc2c(-c3ccc(F)cc3)cc(C(N)=O)nc2c1 [Example 4-31, 7-{[(2-amino-2-oxoethyl)(methyl)amino]methyl}-4-(4-fluorophenyl)quino-line-2-carboxamide] | 84 nM
7 | N#C[C@@H]1CCCN1Cc1ccc2c(-c3ccc(F)cc3)cc(C(N)=O)nc2c1 [Example 4-32, 7-{[(2S)-2-cyanopyrrolidin-1-yl]methyl}-4-(4-fluorophenyl)quino-line-2-carboxamide] | 478 nM
8 | CO[C@H]1CCN(Cc2ccc3c(-c4ccc(F)cc4)cc(C(N)=O)nc3c2)C1 [Example 4-33, 4-(4-fluorophenyl)-7-{[(3S)-3-methoxypyrrolidin-1-yl]methyl}quinoline-2-carboxamide] | 138 nM
9 | CN(C)C1CCN(Cc2ccc3c(-c4ccc(F)cc4)cc(C(N)=O)nc3c2)C1 (stereo not drawn) [Example 4-34, 7-{[3-(dimethylamino)pyrrolidin-1-yl]methyl}-4-(4-fluorophenyl)quino-line-2-carboxamide] | 330 nM
10 | CC(=O)NC1CCN(Cc2ccc3c(-c4ccc(F)cc4)cc(C(N)=O)nc3c2)C1 (stereo not drawn) [Example 4-35, 7-{[3-(acetylamino)pyrrol-idin-1-yl]methyl}-4-(4-fluorophenyl)quino-line-2-carboxamide] | 187 nM
11 | NC(=O)c1cc(-c2ccc(F)cc2)c2ccc(CN3CC(O)CC3C(N)=O)cc2n1 (stereo not drawn) [Example 4-36, 7-[(2-carbamoyl-4-hydroxypyrrolidin-1-yl)methyl]-4-(4-fluorophenyl)quino-line-2-carboxamide] | 274 nM
12 | CC1CN(Cc2ccc3c(-c4ccc(F)cc4)cc(C(N)=O)nc3c2)CC(C)O1 (stereo not drawn) [Example 4-37, 7-[(2,6-dimethylmorpholin-4-yl)methyl]-4-(4-fluorophenyl)quino-line-2-carboxamide] | 55 nM
13 | C[C@H]1COCCN1Cc1ccc2c(-c3ccc(F)cc3)cc(C(N)=O)nc2c1 [Example 4-38, 4-(4-fluorophenyl)-7-{[(3S)-3-methylmorpholin-4-yl]methyl}quinoline-2-carboxamide] | 57 nM
14 | C[C@H]1CN(Cc2ccc3c(-c4ccc(F)cc4)cc(C(N)=O)nc3c2)CCO1 [Example 4-39, 4-(4-fluorophenyl)-7-{[(2S)-2-methylmorpholin-4-yl]methyl}quinoline-2-carboxamide] | 42 nM
15 | NC(=O)c1cc(-c2ccc(F)cc2)c2ccc(CN3CCC(O)CC3)cc2n1 [Example 4-40, 4-(4-fluorophenyl)-7-[(4-hydroxypiperidin-1-yl)methyl]quinoline-2-carboxamide] | 392 nM
16 | NC(=O)c1cc(-c2ccc(F)cc2)c2ccc(CN3CCC(O)(O)CC3)cc2n1 [Example 4-41, 7-[(4,4-dihydroxypiperidin-1-yl)methyl]-4-(4-fluorophenyl)quino-line-2-carboxamide] | 118 nM
17 | NC(=O)c1cc(-c2ccc(F)cc2)c2ccc(CN3CCS(=O)(=O)CC3)cc2n1 [Example 4-42, 7-[(1,1-dioxidothiomorpholin-4-yl)methyl]-4-(4-fluorophenyl)quino-line-2-carboxamide] | 56 nM
18 | CN1CCN(Cc2ccc3c(-c4ccc(F)cc4)cc(C(N)=O)nc3c2)CC1 [Example 4-43, 4-(4-fluorophenyl)-7-[(4-methylpiperazin-1-yl)methyl]quinoline-2-carboxamide] | 252 nM
19 | NC(=O)c1cc(-c2ccc(F)cc2)c2ccc(CN3CCCC(C(F)(F)F)C3)cc2n1 (stereo not drawn) [Example 4-44, 4-(4-fluorophenyl)-7-{[3-(trifluoromethyl)piperidin-1-yl]methyl}quinoline-2-carboxamide] | 59 nM
20 | NC(=O)c1cc(-c2ccc(F)cc2)c2ccc(CN3CCNCC3)cc2n1 [Example 4-45, 4-(4-fluorophenyl)-7-(piperazin-1-ylmethyl)quinoline-2-carboxamide] | 136 nM

Row | Compound | IC50
21 | NC(=O)c1cc(-c2ccc(F)cc2)c2ccc(CN3CCOC(C(F)(F)F)C3)cc2n1 (stereo not drawn) [Example 4-46, 4-(4-fluorophenyl)-7-{[2-(trifluoromethyl)morpholin-4-yl]methyl}quinoline-2-carboxamide] | 24 nM
22 | Cc1cn(C2CCN(Cc3ccc4c(-c5ccc(F)cc5)cc(C(N)=O)nc4c3)CC2)cn1 [Example 4-47, 4-(4-fluorophenyl)-7-{[4-(4-methyl-1H-imidazol-1-yl)piperidin-1-yl]methyl}quinoline-2-carboxamide] | 170 nM
23 | NC(=O)c1cc(-c2ccc(F)cc2)c2ccc(CN3CCCC(n4cncn4)C3)cc2n1 (stereo not drawn) [Example 4-48, 4-(4-fluorophenyl)-7-{[3-(1H-1,2,4-triazol-1-yl)piperidin-1-yl]methyl}quinoline-2-carboxamide] | 53 nM
24 | NC(=O)c1cc(-c2ccc(F)cc2)c2ccc(CN3CCn4cc(C(F)(F)F)nc4C3)cc2n1 [Example 4-49, 4-(4-fluorophenyl)-7-{[2-(trifluoromethyl)-5,6-dihydroimidazo[1,2-a]pyrazin-7(8H)-yl]methyl}quinoline-2-carboxamide] | 38 nM
25 | NC(=O)c1cc(-c2ccc(F)cc2)c2ccc(CN3CCC(N)CC3)cc2n1 [Example 4-50, 7-[(4-aminopiperidin-1-yl)methyl]-4-(4-fluorophenyl)quino-line-2-carboxamide] | 381 nM
26 | Cc1ncc(-c2cc(C(N)=O)nc3cc(CN4CCOC(C(F)(F)F)C4)ccc23)s1 (stereo not drawn) [Example 4-51, 4-(2-methyl-1,3-thiazol-5-yl)-7-{[2-(trifluoromethyl)morpholin-4-yl]methyl}quinoline-2-carboxamide] | 9 nM
27 | NC(=O)c1cc(-c2ccc(F)cc2)c2ccc(CN3CCC4(CCOC4)CC3)cc2n1 [Example 4-52, 4-(4-fluorophenyl)-7(2-oxa-8-azaspiro[4.5]dec-8-ylmethyl)quinoline-2-carboxamide] | 93 nM
28 | Cn1cc(-c2cc(C(N)=O)nc3cc(CN4CCO[C@H](C(F)(F)F)C4)ccc23)cn1 [Example 4-53, 4-(1-methyl-1H-pyrazol-4-yl)-7-{[(2S)-2-(trifluoromethyl)morpholin-4-yl]methyl}quinoline-2-carboxamide] | 25 nM
29 | Cn1cc(-c2cc(C(N)=O)nc3cc(CN4CCO[C@@H](C(F)(F)F)C4)ccc23)cn1 [Example 4-54, 4-(1-methyl-1H-pyrazol-4-yl)-7-{[(2R)-2-(trifluoromethyl)morpholin-4-yl]methyl}quinoline-2-carboxamide] | 12 nM
30 | COc1ncc(-c2cc(C(N)=O)nc3cc(CN4CCOC(C(F)(F)F)C4)ccc23)s1 (stereo not drawn) [Example 4-55, 4-(2-methoxy-1,3-thiazol-5-yl)-7-{[2-(trifluoromethyl)morpholin-4-yl]methyl}quinoline-2-carboxamide] | 33 nM
31 | Cn1cc(-c2cc(C(N)=O)nc3cc(CN4CCOC(C)(C)C4)ccc23)cn1 [Example 4-56, 7-[(2,2-dimethylmorpholin-4-yl)methyl]-4-(1-methyl-1H-pyrazol-4-yl)quinoline-2-carboxamide] | 88 nM
32 | Cn1cc(-c2cc(C(N)=O)nc3cc(CN4CCOCC4(C)C)ccc23)cn1 [Example 4-57, 7-[(3,3-dimethylmorpholin-4-yl)methyl]-4-(1-methyl-1H-pyrazol-4-yl)quinoline-2-carboxamide] | 237 nM
33 | COCC1CN(Cc2ccc3c(-c4cnn(C)c4)cc(C(N)=O)nc3c2)CCO1 (stereo not drawn) [Example 4-58, 7-{[2-(methoxymethyl)morpholin-4-yl]methyl}-4-(1-methyl-1H-pyrazol-4-yl)quinoline-2-carboxamide] | 163 nM
34 | C[C@H]1COCCN1Cc1ccc2c(-c3cnn(C)c3)cc(C(N)=O)nc2c1 [Example 4-59, 7-{[(3S)-3-methylmorpholin-4-yl]methyl}-4-(1-methyl-1H-pyrazol-4-yl)quinoline-2-carboxamide] | 394 nM
35 | C[C@@H]1COCCN1Cc1ccc2c(-c3cnn(C)c3)cc(C(N)=O)nc2c1 [Example 4-60, 7-{[(3R)-3-methylmorpholin-4-yl]methyl}-4-(1-methyl-1H-pyrazol-4-yl)quinoline-2-carboxamide] | 196 nM
36 | C[C@@H]1CN(Cc2ccc3c(-c4cnn(C)c4)cc(C(N)=O)nc3c2)CCO1 [Example 4-61, 7-{[(2R)-2-methylmorpholin-4-yl]methyl}-4-(1-methyl-1H-pyrazol-4-yl)quinoline-2-carboxamide] | 166 nM
37 | C[C@H]1CN(Cc2ccc3c(-c4cnn(C)c4)cc(C(N)=O)nc3c2)CCO1 [Example 4-62, 7-{[(2S)-2-methylmorpholin-4-yl]methyl}-4-(1-methyl-1H-pyrazol-4-yl)quinoline-2-carboxamide] | 252 nM
38 | C[C@@H]1COC[C@@H](C)N1Cc1ccc2c(-c3cnn(C)c3)cc(C(N)=O)nc2c1 [Example 4-63, 7-{[(3R,5R)-3,5-dimethylmorpholin-4-yl]methyl}-4-(1-methyl-1H-pyrazol-4-yl)quinoline-2-carboxamide] | 46 nM
39 | CC(C)CC1COCCN1Cc1ccc2c(-c3cnn(C)c3)cc(C(N)=O)nc2c1 (stereo not drawn) [Example 4-64, 7-{[3-(2-methylpropyl)morph-olin-4-yl]methyl}-4-(1-methyl-1H-pyrazol-4-yl)quinoline-2-carboxamide] | 73 nM
